According to patent publication US11464788B2, “Oligomer-corticosteroid conjugates” (Nektar Therapeutics, priority 2007, dated 2022):

Biological target: T1, glucocorticoid receptors (Rattus norvegicus, UniProt P06536)
T1 sequence (P06536 1-795): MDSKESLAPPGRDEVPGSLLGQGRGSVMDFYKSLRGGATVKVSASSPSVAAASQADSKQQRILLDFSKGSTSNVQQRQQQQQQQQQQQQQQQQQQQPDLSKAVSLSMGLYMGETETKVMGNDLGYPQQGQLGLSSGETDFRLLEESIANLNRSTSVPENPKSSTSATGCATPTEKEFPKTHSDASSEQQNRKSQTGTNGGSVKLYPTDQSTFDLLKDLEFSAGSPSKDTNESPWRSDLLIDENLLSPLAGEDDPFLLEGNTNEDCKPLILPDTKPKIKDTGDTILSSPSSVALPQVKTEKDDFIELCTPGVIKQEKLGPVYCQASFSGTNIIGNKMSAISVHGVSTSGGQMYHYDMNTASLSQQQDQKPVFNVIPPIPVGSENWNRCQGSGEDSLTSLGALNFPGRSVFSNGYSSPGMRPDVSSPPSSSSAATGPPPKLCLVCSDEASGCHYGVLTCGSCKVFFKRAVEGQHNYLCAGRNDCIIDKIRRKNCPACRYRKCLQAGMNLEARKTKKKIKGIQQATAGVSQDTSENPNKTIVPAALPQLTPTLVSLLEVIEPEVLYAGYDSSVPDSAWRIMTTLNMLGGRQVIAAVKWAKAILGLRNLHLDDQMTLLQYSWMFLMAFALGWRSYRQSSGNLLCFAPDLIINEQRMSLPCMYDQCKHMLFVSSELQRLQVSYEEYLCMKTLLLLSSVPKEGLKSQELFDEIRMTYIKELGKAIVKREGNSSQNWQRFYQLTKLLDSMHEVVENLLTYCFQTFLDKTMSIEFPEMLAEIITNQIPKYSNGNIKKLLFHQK
Test: Glucocorticoid binding assay (competitive binding with [6,7-3H]triamcinolone acetonide)
Method: The assay was used to determine whether the tested compounds bound to the glucocorticoid binding site and is based on procedures set forth in the literature. […] Int. […] Briefly, using competitive binding of with the radioligand “[6,7-^3H]triamcinolone acetonide” (30-50 Cl/mmol), reactions were carried out in 50 mM KH2PO4 (pH 7.4) containing 10 mM sodium molybdate and 10 mM α-monothioglycerol at 0° C. for 16 hours. The glucocorticoid receptors were obtained from rat brains. The reactions were terminated by rapid vacuum filtration onto glass fiber filters. Radioactively trapped onto the filters is determined and compared to control values. […] A higher IC50 value reflects a weaker binding affinity.

IC50: 3.89 µM
Compound: C[C@]12CCC(=O)C=C1CC[C@@H]1[C@@H]2C(=O)C[C@@]2(C)[C@H]1CC[C@]2(O)C(=O)CO [Cortisone]
